The text below walks through data of patent publication US9096559B2, “4-carboxybenzylamino derivatives as histone deacetylase inhibitors” (Merck Sharp & Dohme Corp., priority 2007, dated 2015).

The chains behind the UniProt entries cited, without tags or fusion partners.
UniProt Q13547, whole entry: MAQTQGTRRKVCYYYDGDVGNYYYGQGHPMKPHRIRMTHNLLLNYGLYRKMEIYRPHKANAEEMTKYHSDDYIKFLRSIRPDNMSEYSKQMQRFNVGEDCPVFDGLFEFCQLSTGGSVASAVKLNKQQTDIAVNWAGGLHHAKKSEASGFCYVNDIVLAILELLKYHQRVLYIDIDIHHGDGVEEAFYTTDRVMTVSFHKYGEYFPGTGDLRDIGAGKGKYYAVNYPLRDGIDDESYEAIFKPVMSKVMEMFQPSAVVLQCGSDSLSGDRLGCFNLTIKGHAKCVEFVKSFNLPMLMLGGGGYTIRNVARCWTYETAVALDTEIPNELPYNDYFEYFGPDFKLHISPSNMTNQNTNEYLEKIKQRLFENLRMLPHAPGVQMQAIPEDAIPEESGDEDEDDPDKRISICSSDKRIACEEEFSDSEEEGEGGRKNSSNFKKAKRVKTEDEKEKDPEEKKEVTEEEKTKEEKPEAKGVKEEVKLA

For the assay, the target named is histone deacetylase, subtype 1 (HDAC1) (Homo sapiens (Human), UniProt Q13547). The assay is described as follows: HDAC1-Flag in vitro deacetylation assay. It counts as biochemical. The note with it: IP = inflection point. Here is the method: Novel compounds were tested for their ability to inhibit histone deacetylase, subtype 1 (HDAC1) using an in vitro deacetylation assay. The enzyme source for this assay was an epitope-tagged human HDAC1 complex immuno-purified from stably expressing mammalian cells. The substrate consisted of a commercial product containing an acetylated lysine side chain (BIOMOL Research Laboratories, Inc., Plymouth Meeting, Pa.). Upon deacetylation of the substrate by incubation with the purified HDAC1 complex, a fluorophore is produced that is directly proportional to the level of deacetylation.

Structures are written as SMILES. pIC50: −log10 of the molar value.

With `Nc1ccc(-c2ccccc2)cc1NC(=O)c1ccc(CNC(=O)OCc2ccccc2)cc1` [Example 15, phenylmethyl[(4-{[(4-aminobiphenyl-3-yl)amino]carbonyl}phenyl)methyl]carbamate], the pIC50 was 7.24.
